Measured values: publication PMC10769034, “Aromatic oil from lavender as an atopic dermatitis suppressant” (PLOS ONE, 2024)
Values joined by “and” are separate entries in the source; they are usually repeats but may differ in a detail not shown here. Equal entries are not always repeated.

System: CD86 on U937 cells
Test: Dendritic cell activation assay (CD86 by flow cytometry, OECD TG442E)
Details: 50 µg/mL, Experiment 2, 48 h; control printed for each of three test series

Trinitrobenzenesulfonic acid
CD86+ FL1 positivity (%): 29.2% and 35.7% and 47.9% | S.I. (%): 342.2% and 266.8% and 399.9%
